The entries are a selection whose mix differs from that of the whole data set. Some structures show a salt or complex split into parts, the way the source records it. Activity calls are given as the source filed them. Rule as the data show it: active = activation above about 4.9%; inactive = the rest.

By UniProt entry, the sequences of proteins in these tests, tags left out.
UniProt Q8TDV0, whole entry: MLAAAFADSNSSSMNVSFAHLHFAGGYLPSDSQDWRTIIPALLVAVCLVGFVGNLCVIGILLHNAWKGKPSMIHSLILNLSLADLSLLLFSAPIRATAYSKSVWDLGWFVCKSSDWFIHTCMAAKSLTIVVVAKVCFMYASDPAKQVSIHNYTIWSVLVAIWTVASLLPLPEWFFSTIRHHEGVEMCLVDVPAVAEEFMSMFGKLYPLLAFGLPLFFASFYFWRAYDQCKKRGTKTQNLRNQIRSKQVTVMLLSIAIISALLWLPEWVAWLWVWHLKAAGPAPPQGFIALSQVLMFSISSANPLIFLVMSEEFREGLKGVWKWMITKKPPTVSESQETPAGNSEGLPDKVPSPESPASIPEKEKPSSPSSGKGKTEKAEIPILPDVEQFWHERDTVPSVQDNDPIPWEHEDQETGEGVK

The experiment deals with G-protein coupled receptor 151 (Homo sapiens) (UniProt Q8TDV0). Description: activators of human GPR151, primary screen, cell-based, PathHunter beta-arrestin, luminescence (AID 1508602).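 Also: 0% = median of compound wells and 100% = cells with positive control.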 Particulars: PathHunter beta-arrestin GPR151 cells, at 11.2 µM, hits give high values.
With `Cc1ccc(C)c(NP(C)(=O)Oc2ccccc2)c1` (stereo not drawn), the activation was inactive: 0.0458%. Under `O=[N+]([O-])c1cc2[nH]c3cc([N+](=O)[O-])c([N+](=O)[O-])cc3c2cc1[N+](=O)[O-]` stands inactive: -0.34%; under `C=CCC1(CC=C)CCCCCCCCCCCN1.O=[N+]([O-])c1cc([N+](=O)[O-])c(O)c([N+](=O)[O-])c1`, inactive: -2.15%; under `CP(=O)(Nc1cccc(Br)c1)Oc1ccccc1` (stereo not drawn), inactive: -0.0099%. Under `O=[N+]([O-])c1cnc(Nc2c([N+](=O)[O-])cc([N+](=O)[O-])cc2[N+](=O)[O-])c([N+](=O)[O-])c1` stands inactive: 2.93%; under `CC(=O)NC1(NC(C)=O)CC(C)N(C)CC1C.O=[N+]([O-])c1cc([N+](=O)[O-])c(O)c([N+](=O)[O-])c1` (stereo not drawn), inactive: -0.358%. As to `COc1ccc(OP(C)(=O)Nc2cccc(Cl)c2C)cc1` (stereo not drawn), the activation was inactive: -0.889%.

For `COc1ccccc1OP(C)(=O)Nc1cccc(Br)c1` (stereo not drawn), the activation is inactive: 1.82%. Under `COc1ccccc1OP(C)(=O)Nc1ccc(Cl)cc1` (stereo not drawn) stands inactive: 1.68%; under `CC1=[N+](C)C(C)(C)Cc2ccccc21.O=[N+]([O-])c1cc([N+](=O)[O-])c(O)c([N+](=O)[O-])c1`, inactive: 0.337%; under `CCOC(=O)c1ccc(NP(C)(=O)Oc2cc(C)cc(C)c2)cc1` (stereo not drawn), inactive: 2.19%. Under `O=c1[nH]c2cc([N+](=O)[O-])c([N+](=O)[O-])c([N+](=O)[O-])c2[nH]1` stands inactive: -0.107%; under `Cc1ccc(Cl)c(OP(C)(=O)Nc2ccccn2)c1` (stereo not drawn), inactive: 1.73%; under `O=[N+]([O-])Nc1nc(CCc2n[nH]c(N[N+](=O)[O-])n2)n[nH]1`, inactive: -0.473%. Under `O=[N+]([O-])C12CC3(O)CC([N+](=O)[O-])(C1)CC([N+](=O)[O-])(C3)C2` stands inactive: -0.114%.

Take `Nc1c([N+](=O)[O-])cc([N+](=O)[O-])c(Nc2ccc(C(=O)O)cc2)c1[N+](=O)[O-]`: the activation was inactive: -1.69%. Under `COc1ccccc1OP(C)(=O)Nc1c(C)cccc1C` (stereo not drawn) stands inactive: 1.89%; under `CCN(CC)C(C)COC(=O)C(O)(c1ccccc1)c1ccccc1` (stereo not drawn), inactive: -0.752%. Under `Cc1cc(N(C)C)cc[n+]1C(=O)N(C)C.c1ccc([B-](c2ccccc2)(c2ccccc2)c2ccccc2)cc1` stands inactive: -0.674%; under `CCCOc1ccc(NP(C)(=O)Oc2ccccc2OC)cc1` (stereo not drawn), inactive: 2.09%; under `CP(=O)(Nc1cccc(Br)c1)Oc1ccc(Cl)cc1` (stereo not drawn), inactive: 0.484%. Under `CP(=O)(Nc1ccc(Br)cc1)Oc1ccc(Cl)cc1` (stereo not drawn) stands inactive: -0.878%; under `CCOC(=O)C(CC)C1=NC(C)(C)Cc2ccccc21.O=[N+]([O-])c1cc([N+](=O)[O-])c(O)c([N+](=O)[O-])c1` (stereo not drawn), inactive: -0.0514%. For the molecule `COc1ccc(NP(C)(=O)Oc2ccc(Cl)cc2)cc1` (stereo not drawn), the activation was inactive: 2.53%. Under `Cc1cc(-c2nc3ccccc3[nH]2)c2ccccc2n1.O=[N+]([O-])c1cc([N+](=O)[O-])c(O)c([N+](=O)[O-])c1` stands inactive: 0.114%; under `CN(C)/N=C/c1ccc(-c2c([N+](=O)[O-])cc([N+](=O)[O-])cc2[N+](=O)[O-])o1`, inactive: -1.69%. Turning to `CP(=O)(O)OC(c1ccccc1)C(Cl)(Cl)C(F)(F)F` (stereo not drawn), the activation was inactive: 0.0516%.

Consider `Nc1nonc1-c1no[n+]([O-])c1-c1nonc1N`, for which the activation is inactive: -1.26%. On to `CCN(CC)C(=O)c1c([N+](=O)[O-])cc([N+](=O)[O-])cc1[N+](=O)[O-]`, for which the activation is inactive: -1.78%. Under `CCOC(=O)c1ccc(NP(C)(=O)Oc2ccc(OC)cc2)cc1` (stereo not drawn) stands inactive: -0.628%; under `Cc1cccc(NP(C)(=O)Oc2ccccc2)c1` (stereo not drawn), inactive: -0.437%. Under `CP(=O)(O)OC(c1ccc(Cl)cc1)C(F)(F)F` (stereo not drawn) stands inactive: -0.553%; under `COc1ccccc1OP(C)(=O)Nc1cccc(Cl)c1C` (stereo not drawn), inactive: -0.562%.

On to `Cc1ccc(Cl)cc1OP(C)(=O)Nc1cccc2nsnc12` (stereo not drawn), for which the activation is inactive: -0.708%. Under `CCOP(C)(=S)SCC(=O)NC(C)C(=O)O` (stereo not drawn) stands inactive: 0.534%. Take `CP(=O)(Nc1ccccn1)Oc1ccc(Cl)cc1` (stereo not drawn): the activation was active: 6.84%. On to `COc1cc2nc(C)sc2cc1NC(C)=O`, for which the activation is inactive: -0.564%.

Consider `CCOP(C)(=S)SCC(=O)NC(Cc1ccccc1)C(=O)O` (stereo not drawn), for which the activation was inactive: 1.01%. Under `COc1ccc(NP(C)(=O)Oc2ccc(C(C)C)cc2)cc1` (stereo not drawn) stands inactive: 0.453%; under `C=C(C)CC1NC2CC(C)(C)C1c1ccccc12.O=[N+]([O-])c1cc([N+](=O)[O-])c(O)c([N+](=O)[O-])c1` (stereo not drawn), inactive: -0.814%; under `CP(=O)(NC(=O)Nc1ccccc1)Oc1ccccc1` (stereo not drawn), inactive: -0.467%.

For the molecule `CP(=O)(O)OC(c1cccc(Cl)c1)C(F)(F)F` (stereo not drawn), the activation was inactive: -0.636%. Take `CCN(CC)P(=O)(c1c([N+](=O)[O-])cc([N+](=O)[O-])cc1[N+](=O)[O-])N(CC)CC`: the activation was inactive: -0.251%. For `Cc1ccc(NP(C)(=O)Oc2ccccc2)cc1C` (stereo not drawn), the activation was inactive: 1.14%. Under `CP(=O)(Nc1ccc(Cl)cc1)Oc1ccccc1` (stereo not drawn) stands inactive: 1.63%. Under `CP(=O)(Nc1ccccc1Br)Oc1ccccc1` (stereo not drawn) stands inactive: 0.403%.

`CC(Nc1c([N+](=O)[O-])cc([N+](=O)[O-])cc1[N+](=O)[O-])c1ccc([N+](=O)[O-])cc1` (stereo not drawn): the activation was inactive: 0.746%.

Consider `COc1ccccc1OP(C)(=O)Nc1ccccc1` (stereo not drawn), for which the activation was inactive: 0.467%. Under `CN(C)CCOC(=O)C(O)(c1ccccc1)c1ccccc1` stands inactive: -0.037%; under `CP(=O)(O)OC(c1ccccc1)C(F)(F)F` (stereo not drawn), inactive: 0.371%. Under `COc1ccc(NP(C)(=O)OC(c2ccccc2)C(F)(F)F)cc1` (stereo not drawn) stands inactive: 1.76%.

In the case of `O=[N+]([O-])c1cc([N+](=O)[O-])c(CCO)c([N+](=O)[O-])c1`, the activation is inactive: 1.17%. As for `COc1ccccc1OP(C)(=O)Nc1ccc(C)cc1` (stereo not drawn), the activation is inactive: -0.228%. Under `Cc1ccc(NP(C)(=O)Oc2ccccc2)c(C)c1` (stereo not drawn) stands inactive: -0.234%; under `CCOC(=O)c1ccc(NP(C)(=O)Oc2ccccc2)cc1` (stereo not drawn), inactive: 0.579%. Consider `CP(=O)(O)OC(c1cccc(C(F)(F)F)c1)C(F)(F)F` (stereo not drawn), for which the activation was inactive: -1.19%. Under `Cc1cc(C)cc(OP(C)(=O)NCc2ccccc2)c1` (stereo not drawn) stands inactive: -1.1%. Under `COc1ccccc1OP(C)(=O)Nc1cc(Cl)ccc1C` (stereo not drawn) stands inactive: 0.0545%; under `O=C(O)C1(O)c2ccccc2-c2ccccc21`, inactive: -1.02%; under `CC(C)(C)c1ccc(OP(C)(N)=O)cc1` (stereo not drawn), inactive: -1.02%. For `CC(CCN([N+](=O)[O-])S(=O)(=O)c1ccc([N+](=O)[O-])cc1)([N+](=O)[O-])[N+](=O)[O-]`, the activation was inactive: 0.617%. Under `CP1(=O)Oc2ccccc2Cc2ccccc2O1` stands inactive: 0.19%; under `CCc1ccc(OP(C)(=O)Nc2ccccc2I)cc1` (stereo not drawn), inactive: 0.463%; under `O=C(O)Cc1c([N+](=O)[O-])cc([N+](=O)[O-])cc1[N+](=O)[O-]`, inactive: -0.975%.

For `O=C(O)C(O)(c1ccccc1)c1ccccc1`, the activation was inactive: -1.49%. Under `CCOP(C)(=S)SCN(CC(=O)O)C(=O)OC` (stereo not drawn) stands inactive: 0.143%.

Take `O=[N+]([O-])c1c(NCCO)c([N+](=O)[O-])c(NCCO)c([N+](=O)[O-])c1NCCO`: the activation was inactive: 4.76%. Under `CC(C)Oc1ccc(NP(C)(=O)Oc2ccc(Cl)cc2)cc1` (stereo not drawn) stands inactive: -0.832%. Under `COc1ccccc1OP(C)(=O)Nc1ccc(Cl)cc1Cl` (stereo not drawn) stands inactive: 2.43%; under `CCCCOC(=O)Nc1c([N+](=O)[O-])cc([N+](=O)[O-])cc1[N+](=O)[O-]`, inactive: -0.205%; under `CCN(CC)CCCOC(=O)C(O)(c1ccccc1)c1ccccc1`, inactive: -1.47%.

For the molecule `Cc1ccc(NP(C)(=O)Oc2ccccc2)cc1` (stereo not drawn), the activation was inactive: -0.388%. For `Cc1ccc2c(c1)c1nc(C)sc1n2C.O=[N+]([O-])c1cc([N+](=O)[O-])c(O)c([N+](=O)[O-])c1`, the activation is inactive: 0.143%.

As for `Cc1cc(C)cc(OP(C)(=O)Nc2ccc(F)cc2)c1` (stereo not drawn), the activation was inactive: 0.0108%. Under `CCN(CC)c1nc(C)cc(C)n1.O=[N+]([O-])c1cc([N+](=O)[O-])c(O)c([N+](=O)[O-])c1` stands inactive: 0.267%; under `Nc1c([N+](=O)[O-])cc([N+](=O)[O-])c(Nc2ccccc2C(=O)O)c1[N+](=O)[O-]`, inactive: -1.71%; under `O=[N+]([O-])c1cc([N+](=O)[O-])c(Nc2ccccn2)c([N+](=O)[O-])c1`, inactive: 0.29%. With `CCOP(C)(=S)SCN(CC(=O)O)C(=O)OCc1ccccc1` (stereo not drawn), the activation is inactive: 0.812%.

`Cc1c(NP(C)(=O)Oc2ccc(C(C)C)cc2)c(=O)n(-c2ccccc2)n1C` (stereo not drawn): the activation is inactive: -0.162%. For `CP(=O)(Nc1ccc(F)cc1)Oc1ccc(Cl)cc1` (stereo not drawn), the activation is inactive: 0.156%. Under `CC(CN(C)C)OC(=O)C(O)(c1ccccc1)c1ccccc1` (stereo not drawn) stands inactive: -1.03%; under `CN(C)c1c([N+](=O)[O-])cc([N+](=O)[O-])c(N(C)C)c1[N+](=O)[O-]`, inactive: -0.483%. For the molecule `NC(=O)c1c([N+](=O)[O-])cc([N+](=O)[O-])cc1[N+](=O)[O-]`, the activation is inactive: 2.08%. For `COc1ccccc1OP(C)(=O)Nc1ccc(Br)cc1` (stereo not drawn), the activation is inactive: 3.08%.

On to `COc1ccc(OP(C)(=O)Nc2ccccn2)cc1` (stereo not drawn), for which the activation was inactive: -0.0708%. With `CCN(CC)CCOC(=O)C(O)(c1ccccc1)C1CCCCC1` (stereo not drawn), the activation is inactive: 0.985%. On to `CN(C)CCOC(=O)C(O)(c1ccccc1)C1CCCC1` (stereo not drawn), for which the activation is inactive: 0.227%. Under `Cc1cccc(C)c1OP(C)(=O)Nc1ccccc1` (stereo not drawn) stands inactive: 0.969%.

These data come from PubChem BioAssay AID1508602 (The Scripps Research Institute Molecular Screening Center, 2020).
